# Earlier results, collected in paper PMC10197018 (Pediatric blood & cancer, 2021).
# Conditions: reported ranges ref 45-47, 49; cited from earlier work
compound,measurement,value
CCc1c2c(nc3ccc(OC(=O)N4CCC(N5CCCCC5)CC4)cc13)-c1cc3c(c(=O)n1C2)COC(=O)[C@]3(O)CC [Irinotecan],extent of metabolic conversion of irinotecan to SN38,0.016–0.16
